Measured values: PMC9319256, “Human Enzyme PADI4 Binds to the Nuclear Carrier Importin α3” (Cells, 2022)

Assays:
Impα3 = molecular target: T1, Impα3 (Homo sapiens, UniProt O00629); experiment: Biolayer interferometry (BLI), Impα3; type: binding; settings: Impα3 immobilized, peptide 1–7 µM, 25 °C; for kon: pseudo-first-order plot
T1 construct: made in house
T1 sequence (O00629 1-521): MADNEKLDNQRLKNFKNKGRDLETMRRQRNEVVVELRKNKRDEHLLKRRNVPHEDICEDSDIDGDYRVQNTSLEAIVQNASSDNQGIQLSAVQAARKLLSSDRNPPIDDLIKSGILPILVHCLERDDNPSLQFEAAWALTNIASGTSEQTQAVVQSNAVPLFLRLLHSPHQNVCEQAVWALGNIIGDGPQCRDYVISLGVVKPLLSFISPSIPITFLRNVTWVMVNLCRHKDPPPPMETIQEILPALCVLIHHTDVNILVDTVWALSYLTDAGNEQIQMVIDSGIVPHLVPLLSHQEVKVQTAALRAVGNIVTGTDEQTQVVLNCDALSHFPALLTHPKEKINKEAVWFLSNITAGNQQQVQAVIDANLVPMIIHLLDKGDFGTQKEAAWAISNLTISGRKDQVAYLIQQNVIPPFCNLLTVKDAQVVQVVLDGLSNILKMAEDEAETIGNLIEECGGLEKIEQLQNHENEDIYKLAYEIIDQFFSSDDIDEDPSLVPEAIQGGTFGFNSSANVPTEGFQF
Protocol: The association (kon) and dissociation (koff) rate constants of the binding of NLS1/2-PADI4 peptides to Impα3 or ΔImpα3 were determined using a BLItz system (ForteBio, Pall, Barcelona, Spain). The buffer used in the experiments was that recommended by the manufacturer. […] The peptide concentrations were in the range from 1 to 7 µM during the association step. The general scheme of the protein association/dissociation reactions in the BLItz system for NLS1/2-PADI4 with Impα3 and ΔImpα3 immobilized on the biosensor was similar to that described previously.
Fittings of the sensorgrams was carried out using KaleidaGraph (Synergy software, Reading, PA, USA). The interferometry response during the association step, R(t) (measured in response units, RU), and the binding rate, dR(t)/dt, can be used to evaluate the kinetics of the formation of the Impα3/ΔImpα3–NLS1/2-PADI4 complex, according to (3) dR/dt=kon[NLS1/2PADI4](Rmax−R(t))−koffR(t), where Rmax is proportional to the total concentration of biosensor-bound importin species, and [NLS1/2PADI4] represents the concentration of the corresponding NLS1/2-PADI4 peptide.
In Equation (3), R(t) is given by (4) R(t)=Req−Reqe^(−kobs (t−t0)), where Req is the steady-state (or equilibrium) response obtained at infinite time, when dR(t)/dt = 0, and t0 = 180 s is the time at which the association step between biosensor-immobilized Impα3/ΔImpα3 and NLS1/2-PADI4 in the solution started. We fitted the experimentally obtained R(t) under any condition as (5) R(t)=Req−Reqe^(−kobs (t−t0))−Req′e^(−kobs2′ (t−t0)), since an F statistical analysis test of the kinetic constants obtained with a fitting to Equations (4) or (5) was always better in the latter, two-exponential case (at 95% confidence level). With Equation (5), we are assuming that the equilibrium response at infinite time (that is, Req) is reached with the fastest exponential.
The kinetic rate from the second exponential (with a total amplitude smaller than 5%, in all cases, and slower than the other phase) in Equation (5) remained constant at all the peptide concentrations explored.
The dissociation process was always fitted to a single exponential, with R(t) given by (7) R(t)=R1 e^(−koff(t−t0)), where t0 = 300 is the time at which the dissociation of the peptide from the biosensor-bound Impα3/ΔImpα3 started in our experimental setup, and R1 is the response level when dissociation starts.

ΔImpα3 [1] = experiment: Isothermal titration calorimetry (ITC), ΔImpα3; type: binding, human; settings: for Ka (association constant) / Kd: PADI4 or peptide (100 μM) titrated into ΔImpα3 (10 μM), 20 mM Tris pH 7.5, 5 mM TCEP, 150 mM NaCl, 5% glycerol, 25 °C; for Ka (association constant) / Kd / ΔH (binding enthalpy): 95% confidence interval in parentheses; for Kd: read-out: Kd (dissociation constant); for ΔG / ΔH (binding enthalpy): ΔImpα3, pH 7.5, 25 °C
Protocol: Calorimetric titrations for testing the interaction of PADI4, as well as for the interaction of NLS1/2-PADI4 peptides, with both importins, Impα3 and ΔImpα3, were carried out in an Auto-iTC200 automated high-sensitivity calorimeter (MicroCal, Malvern-Panalytical, Malvern, UK). Experiments were performed in 20 mM Tris buffer (pH 7.5), 5 mM TCEP, 150 mM NaCl, and 5% glycerol at 25 °C. PADI4 or the peptide solution (100 μM) in the injection syringe was titrated into the importin solution (10 μM) in the calorimetric cell. The remaining experimental and processing details have been described previously. Due to the presence of glycerol in solution, background injection (included as an adjustable parameter in data fitting) was rather large. The data analysis was conducted in Origin 7.0 (OriginLab, Northampton, MA, USA) with user-defined fitting functions.

ΔImpα3 [2] = experiment: Fluorescence titration of ΔImpα3 with NLS1/2-PADI4; type: binding, human; settings: fluorescence at 330 nm; 3 µM ΔImpα3, 0–20 µM peptide; 20 mM Tris pH 7.5, 5 mM TCEP, 150 mM NaCl, 5% glycerol, 25 °C; titration repeated three times; read-out: dissociation constant
Protocol: For the titration between either Impα3 or ΔImpα3 and NLS1/2-PADI4, increasing amounts of the corresponding peptide, in the concentration range 0–20 µM, were added to a solution with a fixed concentration of either Impα3 or ΔImpα3 (3 µM). Experiments were carried out in the same buffer used for the titration of the intact PADI4 at 25 °C. The experimental setup was the same as in the steady-state fluorescence experiments. Blank corrections were subtracted in all cases. Spectra were corrected for inner-filter effects during fluorescence excitation. Each titration (Impα3 with NLS1/2-PADI4 or ΔImpα3 with NLS1/2-PADI4) was repeated three times, using newly prepared samples. In the three cases, the variations in the results were lower than 10%.
Handling and preparation of samples were the same described in Section 2.4.1. The dissociation constant for each complex, Kd, was calculated by fitting the binding isotherm constructed to the general binding model, explicitly considering ligand depletion. […] Fitting to Equation (2) was carried out using KaleidaGraph (Synergy software, Reading, PA, USA).

CSCC[C@H](NC(=O)[C@@H](NC(=O)[C@H](CC(C)C)NC(=O)[C@@H](NC(=O)[C@@H](NC(=O)[C@H](CCC(=O)O)NC(=O)[C@@H](NC(=O)CNC(=O)[C@@H]1CCCN1C(=O)[C@H](CC(=O)O)NC(=O)[C@H](CC(C)C)NC(=O)[C@@H]1CCCN1C(=O)[C@H](Cc1c[nH]c2ccccc12)NC(=O)[C@@H](NC(=O)[C@H](CO)NC(=O)[C@H](CO)NC(=O)CNC(=O)[C@@H](NC(=O)[C@H](CO)NC(=O)[C@H](CCCCN)NC(=O)[C@H](CCCCN)NC(=O)[C@H](CCCCN)NC(=O)[C@H](C)NC(C)=O)[C@@H](C)O)[C@@H](C)O)C(C)C)C(C)C)[C@@H](C)O)[C@@H](C)O)C(=O)N[C@@H](CCCCN)C(=O)N[C@H](C(=O)N[C@@H](C)C(=O)N[C@@H](CO)C(N)=O)C(C)C [NLS1-PADI4] was tested, and the koff (Impα3) was 0.0685 ± 0.0007 s⁻¹, the kon (Impα3) was 3700 ± 200 M⁻¹ s⁻¹ and the “Ka (association constant)” value (ΔImpα3 [1]) was 6.5 (4.9, 8.3) 10^5 M^−1. For the same compound, the Kd (ΔImpα3 [1]) was 1.5 µM, the ΔG (ΔImpα3 [1]) was -7.9 kcal/mol and the “ΔH (binding enthalpy)” value (ΔImpα3 [1]) was −8.7 (−9.6, −8.0) kcal/mol.

For CC[C@H](C)[C@H](NC(=O)[C@H](CCCCN)NC(=O)[C@H](CCC(N)=O)NC(=O)[C@H](CCC(N)=O)NC(=O)[C@H](CCCCN)NC(=O)[C@H](CCCCN)NC(=O)[C@H](CCCCN)NC(=O)[C@H](CCCCN)NC(=O)[C@@H](NC(=O)CNC(=O)[C@H](CCC(=O)O)NC(=O)[C@H](Cc1ccccc1)NC(=O)[C@H](CC(C)C)NC(=O)[C@H](CC(C)C)NC(=O)[C@H](C)NC(=O)[C@H](CCC(=O)O)NC(=O)CNC(=O)[C@H](Cc1c[nH]cn1)NC(=O)CNC(=O)[C@H](CCC(=O)O)NC(=O)[C@H](CC(N)=O)NC(=O)[C@H](CCC(N)=O)NC(=O)[C@H](CCC(N)=O)NC(=O)[C@H](CCC(=O)O)NC(=O)[C@H](CCC(N)=O)NC(=O)[C@H](Cc1ccccc1)NC(=O)[C@H](CC(C)C)NC(=O)[C@H](CCCCN)NC(=O)[C@H](Cc1ccc(O)cc1)NC(C)=O)[C@@H](C)CC)C(N)=O [NLS2-PADI4], the koff (Impα3) was 0.32 ± 0.01 s⁻¹, the kon (Impα3) was 3000 ± 2000 M⁻¹ s⁻¹ and the “Ka (association constant)” value (ΔImpα3 [1]) was 2.3 (1.5, 3.2) 10^5 M^−1. The Kd (ΔImpα3 [1]) was 4.3 µM, the ΔG (ΔImpα3 [1]) was -7.3 kcal/mol and the “ΔH (binding enthalpy)” value (ΔImpα3 [1]) was −11.2 (−13.7, −9.8) kcal/mol. The Kd (ΔImpα3 [2]) was 4 ± 1 µM.
